From ChEMBL document CHEMBL1124148 (J Med Chem, 1988)

System: L1210 ( R81)
Assay: Inhibitory concentration against growth of L1210/R81 cell line
Assay type: functional, cell-based
Conditions: Mus musculus

## Nc1nc(N)c2nc(CNc3ccc(C(=O)NC(CCCNC(=O)c4ccccc4C(=O)O)C(=O)O)cc3)cnc2n1 (stereo unspecified)
  IC50: 52 µM
